Measured values reported in US20090275653A1, “POLYMORPHIC FORMS OF […]” (priority 2005, published 2009).

Key:
[1] = Hygroscopicity study: exposure to 0-100% relative humidity at room temperature (Karl Fischer, TGA, crystal form by XRD); type: physicochemical
Description: Form E was placed for 1 week under 0-100% relative humidity at room temperature. Table 1 summarizes the results:
Form F was placed for 14 days under 0-100% relative humidity at room temperature. Table 2 summarizes the results:
Form H was placed for 14 days under 0-100% relative humidity at room temperature. Table 3 summarizes the results:
Form J1 was placed for 9 days under 0-100% relative humidity at room temperature. Table 4 summarizes the results:
Table 5 summarizes the results:
(§1) X-Ray powder diffraction data were obtained by method known in the art using a SCINTAG powder X-Ray diffractometer model X'TRA equipped with a solid state detector. Copper radiation of 1.5418 Å was used. A round aluminum sample holder with round zero background quartz plate, with a cavity of 25(diameter)*0.5(depth) mm was used.
TGA analysis was performed using a Mettler M3 meter. The weight of the samples was about 10 mg. The samples were scanned at a rate of 10° C./min from 25° C. to 200° C. The oven was constantly purged with nitrogen gas at a flow rate of 40 ml/min. Standard 70 μl alumina crucibles covered by lids with 1 hole were used.
The water content of ladostigil tartrate was measured by methods known in the art, such Karl Fischer analysis.
Crystal form was determined after equilibration of ladostigil tartrate form A for 10 days at various relative humidities at room temperature.
Form A1 was exposed at various humidity conditions at room temperature for 13 days.
Ladostigil tartrate form A1 was exposed to various humidity conditions at room temperature for 14 days. TGA was performed, and the crystal form was analyzed.
A mixture of ladostigil tartrate form A1 and E, containing primarily form A1, was exposed at various humidity conditions at room temperature for 14 days.
Form E was placed for 7 days under 0-100% relative humidity at room temperature. Table 12 summarizes the results:
Form F was placed for 14 days under 0-100% relative humidity at room temperature. Table 14 summarizes the results:
Ladostigil tartrate Form H was exposed for 14 days under 0-100% relative humidity at room temperature. Table 15 summarizes the results:
Crystal ladostigil tartrate Form J1 was placed for 9 days under 0-100% relative humidity at room temperature.

[2] = Effect of heating on polymorph form; type: physicochemical
Procedure: as §1
The heated sample was analyzed by XRD. Form A1 was obtained.
Various polymorph forms and mixtures thereof were heated. The heating conditions and resulting polymorph forms are described in table 17 below: […]

[3] = 0% RH, 8 days, room temperature
[4] = 20% RH, 8 days, room temperature
[5] = 40% RH, 8 days, room temperature
[6] = 60% RH, 8 days, room temperature
[7] = 80% RH, 8 days, room temperature
[8] = 100% RH, 8 days, room temperature
[9] = As is (before humidity exposure)

## carbamic acid, ethylmethyl-, (3R)-2,3-dihydro-3-(2-propynylamino)-1H-inden-5-yl ester, (2R,3R)-2,3-dihydroxybutanedioate (2:1) [Purely Amorphous Form]
[1]; [3]
  Crystal Form (resulting form): Amorphous
  Loss on Dry by TGA: 0.5%
[1]; 0% RH, 8 days, room temperature, listed as Purely Amorphous form
  Crystal Form (resulting form): Purely Amorphous
[1]; [4]
  Crystal Form (resulting form): Amorphous
  Loss on Dry by TGA: 0.8%
[1]; 20% RH, 8 days, room temperature, listed as Purely Amorphous form
  Crystal Form (resulting form): Purely Amorphous
[1]; [5]
  Crystal Form (resulting form): Amorphous
  Loss on Dry by TGA: 1.2%
[1]; 40% RH, 8 days, room temperature, listed as Purely Amorphous form
  Crystal Form (resulting form): Purely Amorphous
[1]; [6]
  Crystal Form (resulting form): Amorphous
  Loss on Dry by TGA: 2.2%
[1]; 60% RH, 8 days, room temperature, listed as Purely Amorphous form
  Crystal Form (resulting form): Purely Amorphous >> A1
[1]; 60% RH, 8 days, room temperature, listed as purely amorphous form
  Crystal Form (resulting form): traces of form A1
[1]; [7]
  Crystal Form (resulting form): Form A1
  Loss on Dry by TGA: 0.3%
[1]; 80% RH, 8 days, room temperature, listed as purely amorphous form
  Crystal Form (resulting form): form A1
[1]; [8]
  Crystal Form (resulting form): Form A
  Loss on Dry by TGA: 0.4%
[1]; 100% RH, 8 days, room temperature, listed as purely amorphous form
  Crystal Form (resulting form): form A
[1]; 8 days, room temperature, listed as amorphous Form
  Relative humidity range in which the form is stable: 0-60 % RH
[1]; 8 days, room temperature, listed as purely amorphous form
  Relative humidity range in which the form is stable: 0-40 % RH
[1]; [9]
  Crystal Form: Amorphous
  Loss on Dry by TGA: 2.2%
  Water content by Karl Fisher: 2.2%
[2]; 80° C. in conventional oven, 2 hours
  Resulting form after heating/drying: mixtures of Form A1 and A
[2]; heated to 80° C. for 2 hours (Example 41)
  Form obtained after heating (XRD): Form A1
